Laboratory results published in article doi:10.1101/2023.06.09.544295 (bioRxiv, 2023).

System: primary human macrophages
Test: Macrophage differentiation assay, cell surface marker expression by flow cytometry
Assay type: cell-based
Settings: MFI fold-change normalized to M0; chemerin9 10 ng/mL 72 hours; IFNg 10 ng/ml plus LPS 10 ng/ml; IL-10 10 ng/ml; n=4 donors; Fig. 1a

B1: IL-10: reference signal molecule to induce the M2-like macrophages (protein, UniProt P22301 19-178, looked up)
Interleukin-10: SPGQGTQSENSCTHFPGNLPNMLRDLRDAFSRVKTFFQMKDQLDNLLLKESLLEDFKGYLGCQALSEMIQFYLEEVMPQAENQDPDIKAHVNSLGENLKTLRLRLRRCHRFLPCENKSKAVEQVKNAFNKLQEKGIYKAMSEFDIFINYIEAYMTMKIRN
HLA-DR expression (in words): downregulation
